Laboratory results as given in BindingDB's records for doi:10.1021/acs.jnatprod.5b00062 (Albert-Ludwigs-University of Freiburg, 2015).

Chains of the proteins cited; added tags and fusions are not shown. Lines headed by an entry give the natural chain unless they say otherwise; changes in a name come on top.
UniProt P11507: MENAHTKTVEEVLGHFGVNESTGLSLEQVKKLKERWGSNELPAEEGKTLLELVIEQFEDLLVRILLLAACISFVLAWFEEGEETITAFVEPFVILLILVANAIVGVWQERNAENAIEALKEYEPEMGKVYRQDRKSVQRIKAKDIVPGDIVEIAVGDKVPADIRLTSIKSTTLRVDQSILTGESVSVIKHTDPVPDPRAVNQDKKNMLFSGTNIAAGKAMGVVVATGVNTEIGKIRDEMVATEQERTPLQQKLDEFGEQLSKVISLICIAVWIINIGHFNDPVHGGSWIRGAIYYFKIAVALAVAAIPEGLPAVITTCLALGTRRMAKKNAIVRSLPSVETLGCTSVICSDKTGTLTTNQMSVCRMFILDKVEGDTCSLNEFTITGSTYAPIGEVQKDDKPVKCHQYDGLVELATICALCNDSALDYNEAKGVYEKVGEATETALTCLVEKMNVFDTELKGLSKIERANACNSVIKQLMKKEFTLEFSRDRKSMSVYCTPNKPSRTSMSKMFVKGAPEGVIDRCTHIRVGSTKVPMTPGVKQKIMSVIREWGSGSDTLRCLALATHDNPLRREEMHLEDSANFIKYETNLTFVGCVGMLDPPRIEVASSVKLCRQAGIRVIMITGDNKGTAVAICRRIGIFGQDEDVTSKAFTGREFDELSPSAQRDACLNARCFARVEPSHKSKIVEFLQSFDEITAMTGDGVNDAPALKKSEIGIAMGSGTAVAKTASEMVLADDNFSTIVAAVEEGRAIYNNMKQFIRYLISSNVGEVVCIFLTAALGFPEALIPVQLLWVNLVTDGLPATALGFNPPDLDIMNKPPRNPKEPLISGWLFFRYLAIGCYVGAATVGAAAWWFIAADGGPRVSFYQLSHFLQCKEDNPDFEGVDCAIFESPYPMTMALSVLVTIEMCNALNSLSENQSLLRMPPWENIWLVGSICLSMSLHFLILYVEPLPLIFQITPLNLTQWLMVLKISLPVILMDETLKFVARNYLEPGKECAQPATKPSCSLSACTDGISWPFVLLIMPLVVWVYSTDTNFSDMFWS

Molecular target: Sarcoplasmic/endoplasmic reticulum calcium ATPase 2 (Rattus norvegicus, UniProt P11507)
Test: Inhibition of Wistar rat heart SERCA2a after 1 hr

For `CC[C@H](C)[C@H]1O[C@]2(CC[C@@H]1C)C[C@@H]1C[C@@H](C/C=C(\C)[C@@H](O[C@H]3C[C@H](OC)[C@@H](O[C@H]4C[C@H](OC)[C@@H](O)[C@H](C)O4)[C@H](C)O3)[C@@H](C)/C=C/C=C3\CO[C@@H]4[C@H](O)C(C)=C[C@@H](C(=O)O1)[C@]34O)O2` [ABAMECTIN], the IC50 was 6.72 µM.
